Ten molecules from ChEMBL document CHEMBL3244195, “Antidotes or organophosphate poisoning. 2. Thiadiazole-5-carboxaldoximes” (1979) can be followed below.

Data set [1] is described as follows: Solubility of the compound in water. The conditions noted are these: buffer.
Data set [2] has as its system Mus musculus. In words: Half life in hybrid CC57 mouse blood at 50 mg/kg, iv by spectrophotometric analysis. The conditions noted are these: in vivo, strain CC57, Blood.
In data set [3] the test system is Mus musculus. The data set can be described thus: Toxicity in hybrid CC57 mouse assessed as mortality at 1000 mg/kg, ip after 24 hrs. The conditions noted are these: in vivo.
Data set [4] relates to Oryctolagus cuniculus. In words: Half life in Flemish Giant rabbit blood at 50 mg/kg, iv by spectrophotometric analysis. The conditions noted are these: in vivo, strain Flemish Giant.
In data set [5] the test system is Rattus norvegicus. In words: Half life in WAG rat blood at 50 mg/kg, iv by spectrophotometric analysis. Particulars: in vivo, strain WAG.
Data set [6] can be described thus: Dissociation constant, pKa of the compound.
Data set [7] in a line: Dissociation constant, pKa of the compound in 0.1 M aqueous KCl at 25 degC by potentiometric titration analysis. Particulars: buffer.
Data set [8] concerns Cavia porcellus. The data set can be described thus: Half life in guinea pig blood at 25 mg/kg, iv by spectrophotometric analysis. The conditions noted are these: in vivo.
Data set [9] relates to Mus musculus. The data set can be described thus: Half life in hybrid CC57 mouse blood at 25 mg/kg, iv by spectrophotometric analysis. Particulars: in vivo, strain CC57, Blood.
Data set [10] deals with Oryctolagus cuniculus. The data set can be described thus: Half life in Flemish Giant rabbit blood at 25 mg/kg, iv by spectrophotometric analysis. Particulars: in vivo, strain Flemish Giant.
Data set [11] can be described thus: Half life in goat blood at 25 mg/kg, iv by spectrophotometric analysis. The conditions noted are these: in vivo.
Data set [12] deals with Rattus norvegicus. In words: Half life in WAG rat blood at 25 mg/kg, iv by spectrophotometric analysis. Particulars: in vivo, strain WAG.
Data set [13] in a line: Drug excretion in Flemish Giant rabbit urine assessed as unchanged compound level at 125 mg/kg, iv after 24 hrs by RP-HPLC analysis. Particulars: in vivo, strain Flemish Giant.
Data set [14] can be described thus: Drug metabolism in Flemish Giant rabbit urine at 125 mg/kg, iv after 24 hrs by mass spectrometric analysis. The conditions noted are these: in vivo, strain Flemish Giant.
The subject of data set [15] is Rattus norvegicus. In words: Toxicity in WAG rat assessed as mortality at 400 mg/kg, ip after 24 hrs. Particulars: in vivo.
Data set [16] deals with Mus musculus. In words: Toxicity in ip dosed hybrid CC57 mouse after 24 hrs. The conditions noted are these: in vivo.
The test system of data set [17] is Blood. In words: Drug level in WAG rat blood at 100 mg/kg, po after 30 mins. The conditions noted are these: in vivo, 0.5 h, strain WAG.
Data set [18] relates to Oryctolagus cuniculus. In words: Half life in Flemish Giant rabbit blood at 100 mg/kg, iv by spectrophotometric analysis. Particulars: in vivo, strain Flemish Giant.
Data set [19] concerns Blood. The data set can be described thus: Drug level in hybrid CC57 mouse blood at 100 mg/kg, po after 15 mins. Particulars: in vivo, 0.25 h, strain CC57, Blood.
Data set [20] deals with Blood. The data set can be described thus: Drug level in WAG rat blood at 100 mg/kg, po after 60 mins. The conditions noted are these: in vivo, 1 h, strain WAG.
In data set [21] the test system is Blood. In words: Drug level in hybrid CC57 mouse blood at 100 mg/kg, po after 60 mins. Particulars: in vivo, 1 h, strain CC57, Blood.
In data set [22] the test system is Blood. In words: Drug level in hybrid CC57 mouse blood at 100 mg/kg, po after 30 mins. The conditions noted are these: in vivo, 0.5 h, strain CC57, Blood.
The subject of data set [23] is Blood. The data set can be described thus: Drug level in WAG rat blood at 100 mg/kg, po after 15 mins. Particulars: in vivo, 0.25 h, strain WAG.
Data set [24] is described as follows: Half life in goat blood at 50 mg/kg, iv by spectrophotometric analysis. The conditions noted are these: in vivo.
Data set [25] relates to Rattus norvegicus. In words: Elimination half life in WAG rat at 100 mg/kg, po. Particulars: in vivo.
Data set [26] relates to Mus musculus. In words: Elimination half life in hybrid CC57 mouse at 100 mg/kg, po. The conditions noted are these: in vivo.
The test system of data set [27] is Cavia porcellus. In words: Half life in guinea pig blood at 50 mg/kg, iv by spectrophotometric analysis. The conditions noted are these: in vivo.
Data set [28] has as its system Rattus norvegicus. The data set can be described thus: Half life in WAG rat blood at 50 mg/kg, iv by HPLC analysis. The conditions noted are these: in vivo, strain WAG.

`Cc1nsc(/C=N/[O-])n1.[Na+]`: in data set [1], the solubility entry is “soluble”. In addition, the t1/2 in data set [2] amounted to 7 min; in data set [4] it was 13.9 min; in [5] it was 7.7 min. Besides, the Activity entry in data set [3] is “Non-toxic”.
As to `O/N=C/c1ccns1`, the pKa (commonly the pH at which an ionisable group is half protonated) in [6] stood at 8.6.
With `O/N=C/c1cnns1`, the pKa in data set [7] came to 7.64.
Turning to `O/N=C/c1cc[n+](COC[n+]2ccc(/C=N/O)cc2)cc1.[Cl-].[Cl-]`, the t1/2 in data set [8] was determined as 25 min; in data set [9], 9.5 min; in data set [10] it was 32.3 min; in data set [11], 39.9 min; in data set [12] it was 15.4 min.
For `[Na+].[O-]/N=C/c1cnns1`, in data set [1], the solubility entry is “soluble”. The Drug excretion in data set [13] worked out at 0.2%. Also, the Drug metabolism result in data set [14] is given as “metabolite_detected”. The Activity entry in data set [15] was “Non-toxic”. In data set [16], the LD50 (as a rule, the dose at which mortality reaches 50%) came to 1250 mg/kg. The Drug uptake worked out at 22100 ng/mL in [17]; 31100 ng/mL in data set [19]; 8400 ng/mL in data set [20]; 6900 ng/mL in data set [21]; 23600 ng/mL in [22]; 22900 ng/mL in data set [23]. Further, the t1/2 in data set [18] came out at 24.4 min; in data set [2] it was 9.5 min; in data set [24], 38.6 min; in data set [27], 20.9 min; in data set [28], 19.6 min; in data set [4] it was 26.2 min. The same molecule showed a t1/2 in data set [5] of 19.9 min. Further, the beta t1/2 in [25] and in data set [26] was 21 min throughout.
On to `CS(=O)(=O)[O-].C[n+]1ccccc1C=NO`, for which the Drug uptake amounted to 3900 ng/mL in data set [17]; 3200 ng/mL in [19]; 4100 ng/mL in [20]; 4500 ng/mL in [21]; 4800 ng/mL in [22]; 1600 ng/mL in data set [23].
On to `Cc1nnc(/C=N/O)s1`, for which the pKa in data set [7] was found to be 8.4.
As for `Cc1nnc(/C=N/[O-])s1.[Na+]`, the solubility result in [1] is on record as “soluble”. Further, the t1/2 in data set [2] worked out at 10.4 min; in data set [4], 27.7 min; in data set [5], 17 min. Further, in [3], the Activity result was “Non-toxic”.
In turn, `O/N=C/C(F)(F)F` returned a pKa in data set [6] of 8.9.
Take `Cc1nsc(/C=N/O)n1`: in data set [7], the pKa is 6.97.
